Measured values as given in PubChem BioAssay AID2094 (Broad Institute, 2009).
The list shows a part of the results, in another mix than the full data. Some structures show a salt or complex split into parts, the way the source records it. Activity calls are given as the source filed them. No stated cut-off is given here; in the data, active means activity change below about -75% (passing the limit was not always enough); inconclusive means no clear call, values can overlap the other calls.

Experiment: Vibrio harveyi AI-2 quorum sensing modulators, primary screen, JMH597 strain, luminescence/OD600 ratio (AID 2094);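 further: luminescence divided by OD600 gain over 9 h not by final OD600 alone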
Settings: Vibrio harveyi JMH597 AI-2 luminescence/OD600 ratio, 9 h; at 7.5 µM; stronger effect = lower value; 0 = neutral-control median; strain lacks LuxN and CqsS sensors

Structure (SMILES)	activity change
CCN(CC)CC(O)COC(=O)C(O)(c1ccccc1)C1CCCCC1 (configuration not stated)	inactive: 36.2%
COc1ccc(OP(C)(=O)Nc2ccc(Br)cc2)cc1 (configuration not stated)	inactive: 29.1%
COc1ccccc1OP(C)(=O)Nc1c(C)n(C)n(-c2ccccc2)c1=O (configuration not stated)	inactive: 39.6%
O=C(OCCCN1CCCC1)C(O)(c1ccccc1)C1CCCCC1 (configuration not stated)	inactive: 1.77%
CP(=O)(Oc1ccccc1)N1CCOC1=O (configuration not stated)	inactive: -4.09%
CCc1ccc(OP(C)(=O)Nc2cccnc2)cc1 (configuration not stated)	inactive: 19.4%
CC(C)(C)c1ccc(OP(C)(=O)O)cc1	inactive: 18.3%
COc1ccccc1OP(C)(=O)Nc1ccccc1Br (configuration not stated)	inactive: 1.55%
CP(=O)(Nc1ccc(Cl)cc1)Oc1ccc(F)cc1 (configuration not stated)	inactive: 5.91%
CN(C)C(=O)c1c([N+](=O)[O-])cc([N+](=O)[O-])cc1[N+](=O)[O-]	inactive: -32.6%
Nc1ccc2c(ccc3cccnc32)n1.O=[N+]([O-])c1cc([N+](=O)[O-])c(O)c([N+](=O)[O-])c1	inactive: 20.2%
CCOC(=O)c1ccc(NP(C)(=O)Oc2ccc(Cl)cc2)cc1 (configuration not stated)	inactive: -2.23%
CP(=O)(OC12CC3CC(CC(C3)C1)C2)OC12CC3CC(CC(C3)C1)C2	inactive: 28%
Cc1cc(C)cc(OP(C)(=O)Nc2cccc(C(F)(F)F)c2)c1 (configuration not stated)	inactive: 12.8%
COc1ccccc1OP(C)(=O)Nc1ccc(C)c(C)c1 (configuration not stated)	inactive: 11.1%
COc1ccc(OP(C)(=O)Nc2ccccc2Br)cc1 (configuration not stated)	inactive: -3.65%
Cc1nc2ccc3ccccc3c2o1.O=[N+]([O-])c1cc([N+](=O)[O-])c(O)c([N+](=O)[O-])c1	inactive: -3.26%
CP(=O)(OCCOc1ccccc1)OCCOc1ccccc1	inactive: 11.8%
CP(=O)(Nc1ccc(Cl)cc1Cl)Oc1ccccc1 (configuration not stated)	inactive: 13.7%
COc1ccccc1OP(C)(=O)Nc1ccc(Br)cc1 (configuration not stated)	inactive: -4.27%
COc1ccc(OP(C)(=O)Nc2ccccn2)cc1 (configuration not stated)	inactive: 2.99%
CN(C)CCOC(=O)C(O)(c1ccccc1)C1CCCC1 (configuration not stated)	inactive: 25.6%

Structure (SMILES)	activity change
O=[N+]([O-])c1cc([N+](=O)[O-])c(Nc2ccccn2)c([N+](=O)[O-])c1	active: -158%
Cc1c(NP(C)(=O)Oc2ccc(C(C)C)cc2)c(=O)n(-c2ccccc2)n1C (configuration not stated)	inactive: -1.92%
CP(=O)(Nc1ccccn1)Oc1ccccc1 (configuration not stated)	inactive: 12.1%
COc1ccccc1OP(C)(=O)Nc1ccc(C)cc1C (configuration not stated)	inactive: 18.1%
CCc1ccc(OP(C)(=O)O)cc1	inactive: 9.21%
CP(=O)(Nc1ccccc1F)Oc1ccccc1 (configuration not stated)	inactive: 0.368%
CC(C)c1ccc(OP(C)(=O)Nc2ccc(SC(F)(F)F)cc2)cc1 (configuration not stated)	inactive: 9.13%
O=C(OC1CN2CCC1CC2)c1ccc([N+](=O)[O-])cc1 (configuration not stated)	inactive: -0.491%
O=C(OCCN1CCN(CCOCc2ccccc2)CC1)C(O)(c1ccccc1)c1ccccc1	inactive: 17.6%
COc1ccc2c(c1O)-c1c(O)c(OC)cc3c1[C@H](C2)[N+](C)(C)CC3.O=[N+]([O-])c1cc([N+](=O)[O-])c([O-])c([N+](=O)[O-])c1[O-]	inactive: 28.2%
CCOC(=O)c1ccc(NP(C)(=O)Oc2ccc(F)cc2)cc1 (configuration not stated)	inactive: 17.1%
COc1ccc(OP(C)(=O)Nc2ccc(SC(F)(F)F)cc2)cc1 (configuration not stated)	inactive: -6.17%
CCN(CC)CCCOC(=O)C(O)(c1ccccc1)C1CCCCC1 (configuration not stated)	inactive: 15.2%
CP(=O)(Nc1ccccc1)Oc1ccc(F)cc1 (configuration not stated)	inactive: -1.52%
CCCCCOc1ccc(NP(C)(=O)Oc2ccc(Cl)cc2Cl)cc1 (configuration not stated)	inactive: 21.1%
O=[N+]([O-])c1cc([N+](=O)[O-])c(OC2CCCCC2O)c([N+](=O)[O-])c1 (configuration not stated)	inactive: 11%
COc1ccc(OP(C)(=O)Nc2cccc(Br)c2)cc1 (configuration not stated)	inactive: -0.422%
CN(C)CCOC(=O)C(O)(c1ccccc1)C1CCCCC1 (configuration not stated)	inactive: 14.2%
COc1ccc(NP(C)(=O)Oc2ccccc2OC)cc1 (configuration not stated)	inactive: 1.58%
O=[N+]([O-])c1ccc(OP2(=O)COCCO2)cc1 (configuration not stated)	inactive: 12.2%
Cc1cc(-c2cccc3ccccc23)c(C)cn1.O=[N+]([O-])c1cc([N+](=O)[O-])c(O)c([N+](=O)[O-])c1	inactive: -0.424%
CP(=O)(Nc1ccc(SC(F)(F)F)cc1)Oc1ccc(F)cc1 (configuration not stated)	inactive: 9.32%

Structure (SMILES)	activity change
CCOP(C)(=S)SCC(=O)NC(C)(CC)C(=O)O (configuration not stated)	inactive: -0.777%
CP(=O)(Nc1ccc2c(c1)OCCO2)Oc1ccccc1 (configuration not stated)	inactive: 11.8%
Cc1ccccc1NP(C)(=O)Nc1ccccc1C	inactive: 3.71%
O=[N+]([O-])c1cc([N+](=O)[O-])c(-n2nnc3ccccc32)c([N+](=O)[O-])c1	inactive: 7.25%
O=[N+]([O-])c1cc([N+](=O)[O-])c(-c2cnn(-c3ccccc3)c2)c([N+](=O)[O-])c1	inactive: 40.3%
O=[N+]([O-])c1cc([N+](=O)[O-])c(Nc2nnnn2CCO)c([N+](=O)[O-])c1	inactive: 20.6%
CCOC(=O)C(CC)C1=NC(C)(C)Cc2ccccc21.O=[N+]([O-])c1cc([N+](=O)[O-])c(O)c([N+](=O)[O-])c1 (configuration not stated)	inactive: 21.1%
CN1CCCCC1COC(=O)C1(O)c2ccccc2CCc2ccccc21 (configuration not stated)	inactive: -0.0252%
COc1ccccc1OP(C)(=O)Nc1c(C)cccc1C (configuration not stated)	inactive: 36.6%
CP(=O)(Nc1ccc(SC(F)(F)F)cc1)Oc1ccccc1 (configuration not stated)	inactive: 48.3%
CCCOc1ccc(NP(C)(=O)Oc2ccc(Cl)cc2)cc1 (configuration not stated)	inactive: 9.8%
O=C(O)c1cccc(Nc2c([N+](=O)[O-])cc([N+](=O)[O-])cc2[N+](=O)[O-])c1	inactive: 3.03%
CC1=NCCc2c1[nH]c1ccccc21.O=[N+]([O-])c1cc([N+](=O)[O-])c(O)c([N+](=O)[O-])c1	inactive: 27.2%
COc1ccccc1OP(C)(=O)Nc1cccc(Br)c1 (configuration not stated)	inactive: -5.48%
CCOC(=O)c1ccc(NP(C)(=O)Oc2cc(C)cc(C)c2)cc1 (configuration not stated)	inactive: 10.4%
Cc1cc(C)cc(OP(C)(=O)Nc2ccc(C)cc2C)c1 (configuration not stated)	inactive: 13.8%
Cc1ccc(C)c(NP(C)(=O)Oc2ccccc2)c1 (configuration not stated)	inactive: 9.22%
CP(=O)(Nc1cccc(Br)c1)Oc1ccccc1 (configuration not stated)	inactive: 6.16%
Cc1cc(C)cc(OP(C)(=O)Nc2ccccn2)c1 (configuration not stated)	inactive: 5.98%
CCN(CC)CCCOC(=O)C(O)(c1ccccc1)c1ccccc1	inactive: 20.1%
O=[N+]([O-])c1cc([N+](=O)[O-])c(Nc2cccnc2)c([N+](=O)[O-])c1	active: -84.2%
O=[N+]([O-])c1ccc2c(c1)C=Nc1ccccc1O2	inactive: 33.7%

Structure (SMILES)	activity change
CC(C)(C)c1ccc(OP(C)(=O)Nc2ccc(SC(F)(F)F)cc2)cc1 (configuration not stated)	inactive: 40.5%
Cc1cccc(C)c1OP(C)(N)=O (configuration not stated)	inactive: 5.67%
COc1ccccc1OP(C)(=O)Nc1ccc(C)cc1 (configuration not stated)	inactive: -14.4%
Cc1ccc(NP(C)(=O)Oc2ccccc2)c(C)c1 (configuration not stated)	inactive: 26.8%
CCOC(=O)c1ccc(NP(C)(=O)Oc2ccccc2)cc1 (configuration not stated)	inactive: 28.6%
Cc1cc(C)cc(OP(C)(N)=O)c1 (configuration not stated)	inactive: 15.3%
COc1ccccc1OP(C)(=O)Nc1cc(Cl)ccc1C (configuration not stated)	inactive: 7.61%
COc1ccc(OP(C)(=O)Nc2cccc(F)c2)cc1 (configuration not stated)	inactive: 9.81%
CP(=S)(Nn1cnnc1)Oc1ccccc1 (configuration not stated)	inactive: 13.9%
CP(=O)(Nc1ccccc1Br)Oc1ccccc1 (configuration not stated)	inactive: 13.5%
COc1ccccc1OP(C)(=O)Nc1ccccc1 (configuration not stated)	inactive: 10%
CP(=O)(Nc1ccc(SC(F)(F)F)cc1)Oc1ccc(Cl)cc1 (configuration not stated)	inactive: 15.2%
Cc1cccc(C)c1OP(C)(=O)Nc1ccc(SC(F)(F)F)cc1 (configuration not stated)	inactive: -10.6%
CP(=O)(Oc1ccccc1)OC(c1ccccc1)C(F)(F)F (configuration not stated)	inactive: 0.894%
CCc1ccc(OP(C)(=O)N2CCN(c3ccc([N+](=O)[O-])cc3)CC2)cc1 (configuration not stated)	inactive: 16.3%
CP(=O)(NC(=O)Nc1ccccc1)Oc1ccccc1 (configuration not stated)	inactive: -1.36%
Cc1cc(C)cc(OP(C)(=O)Nc2ccc(SC(F)(F)F)cc2)c1 (configuration not stated)	inactive: -7.24%
O=[N+]([O-])c1cc([N+](=O)[O-])c(O)c([N+](=O)[O-])c1.c1ccc(Oc2ccncc2)cc1	inactive: 4.36%
CCOC(=O)c1ccc(NP(C)(=O)Oc2ccc(OC)cc2)cc1 (configuration not stated)	inactive: 15.4%
CCOP(C)(=S)SCC(=O)NC(C)C(=O)O (configuration not stated)	inactive: 19.8%
CP(=O)(Nc1ccccn1)Oc1ccc(Cl)cc1 (configuration not stated)	inactive: 20.2%
